Assay results: PMC11904713 (ACS Omega, 2025)

Protein sequences, listed by entry. Tags and fused reporters are not part of them. Residues count along the entry.
UniProt P06276, 29-602: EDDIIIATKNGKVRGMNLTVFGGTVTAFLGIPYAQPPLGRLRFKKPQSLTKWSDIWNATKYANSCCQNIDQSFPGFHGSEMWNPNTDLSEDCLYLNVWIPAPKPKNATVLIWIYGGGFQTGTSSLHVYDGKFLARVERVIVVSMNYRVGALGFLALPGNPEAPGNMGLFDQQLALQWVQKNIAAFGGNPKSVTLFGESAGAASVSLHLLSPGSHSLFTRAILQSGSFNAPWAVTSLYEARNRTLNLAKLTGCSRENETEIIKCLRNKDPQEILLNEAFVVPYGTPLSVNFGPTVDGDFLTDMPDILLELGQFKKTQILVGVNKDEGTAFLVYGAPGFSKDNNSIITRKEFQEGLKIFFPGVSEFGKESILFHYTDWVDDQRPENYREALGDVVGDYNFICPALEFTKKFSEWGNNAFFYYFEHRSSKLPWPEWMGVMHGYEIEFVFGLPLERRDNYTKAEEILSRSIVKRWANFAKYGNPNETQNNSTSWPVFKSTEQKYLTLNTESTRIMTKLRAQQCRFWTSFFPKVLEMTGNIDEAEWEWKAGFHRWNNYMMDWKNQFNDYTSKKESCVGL

Target: human BChE (hBChE) (Homo sapiens, UniProt P06276)
Assay: hBChE enzyme inhibition and kinetics
Assay type: biochemical

CCN(C)C(=O)Oc1cccc([C@H](C)N(C)C)c1 [rivastigmine] was tested, and the IC50 was 266 nM.
